According to PubChem BioAssay (Tox21):
Several values for one entry are separate records, joined by “and”; a condition that tells them apart may be missing. Equal values may be shown once. Only a part is listed here, and it is no random draw. Records with an inconclusive call do not appear. Activity calls are given as the source filed them. Calls come from the whole dose curve; as a rule, active = well fitted cell-killing curve with a large enough effect in the repeat runs; inconclusive = weak or mixed curves, or effect the other way; inactive = flat fitted curve, though single readings scatter.
% is set by controls: 0 for no effect and ±100 for the full control effect.

Experiment: qHTS RealTime-Glo MT Cell Viability Assay in HepG2 cells - 0 hour (AID 1224889); note: nearly all actives have a fitted effect of over 50% in size
Details: RealTime-Glo luminescence, at 35.3 µM (top of the series)
Source text: U.S. Tox21 Program National Center for Advancing Translational Sciences [NCATS] NIH Chemical Genomics Center [NCGC] U.S. Environmental Protection Agency [EPA] National Institutes of Environmental Health Sciences [NIEHS] National Toxicology Program [NTP] U.S. Food and Drug Administration [FDA] Tox21 Assay Overview: Measure of cell viability is critical in the cell-base assay. Analysis of cell viability is necessary for the characterization of cell responses to cytotoxic drugs and environmental stress. A RealTime-Glo MT Cell Viability Assay to monitor cell viability in real time of continues cell culture during 40 hours of compound treatment was used to screen Tox21 10K library compounds in HepG2 cells. The RealTime-Glo MT Cell Viability Assay is a nonlytic, homogeneous, bioluminescent method to measure cell viability in real time using a simple, plate-based method. The assay involves adding NanoLuc luciferase and a cell-permeant prosubstrate to cells in culture. Viable cells reduce the proprietary prosubstrate to generate a substrate for NanoLuc luciferase. This substrate diffuses from cells into the surrounding culture medium, where it is rapidly used by the NanoLuc Enzyme to produce a luminescent signal. The signal correlates with the number of viable cells, making the assay well suited for cytotoxicity studies.
Tox21 Assay Protocol Summary: The mixture of HepG2 cell suspension and reagents were dispensed at 600cells/6 ul/well in 1536-well tissue culture treated black solid bottom plates using a Multidrop dispenser. After the assay plates were incubated at a 37 C/5% CO2 incubator for 5 hours, 23 nL of compounds dissolved in DMSO, positive and negative controls was transferred to the assay plate by a pintool work station. The plates were incubated at 37 C for 40 hours. The luminescence intensity were measured at 0h, 8h, 16h, 24h, 32h and 40h time points using ViewLux plate reader during compound treatment.
For `NC(=O)Nc1ccc([As](=O)(O)O)cc1`, the activity change, negative = cytotoxicity was inactive: -1.93%.

Same assay, conditions: RealTime-Glo luminescence, at 76.8 µM (top of the series)
With `NC(=O)Nc1ccc([As](=O)(O)O)cc1` the activity change, negative = cytotoxicity was inactive: -1.53%.

Same assay, conditions: RealTime-Glo luminescence; at 76.8 µM (top of the series) unless noted
For `CCOC(=O)Cl`, the activity change, negative = cytotoxicity was inactive: -3.11%. With `COP(=S)(Cl)OC` the activity change, negative = cytotoxicity was inactive: -13.5%. With `O=[As]c1ccccc1` (stereo unspecified) the activity change, negative = cytotoxicity was inactive: 4.37%. In the case of `Cc1cc([N+](=O)[O-])c(O)c([N+](=O)[O-])c1`, the activity change, negative = cytotoxicity is reported as inactive: -14.6%. In the case of `O=C1C2CC=CCC2C(=O)N1SC(Cl)(Cl)C(Cl)Cl` (stereo unspecified), the activity change, negative = cytotoxicity is reported as inactive: -26.1% and inactive: -27.3%. For `CCCCCCCCCCCCCC[P+](CCCCCC)(CCCCCC)CCCCCC`, the activity change, negative = cytotoxicity was inactive: -13.3%. In the case of `O=[P+](Oc1ccccc1)Oc1ccccc1`, the activity change, negative = cytotoxicity is reported as inactive: 1.82%. With `CCCCOP(OCCCC)OCCCC` the activity change, negative = cytotoxicity was inactive: 3.47%. For `CN(C(=O)Cc1ccc(Cl)c(Cl)c1)[C@H]1CC[C@@]2(CCCO2)C[C@@H]1N1CCCC1`, the activity change, negative = cytotoxicity was inactive: 11.1% [at 35.3 µM]. For `O=C(Cl)Oc1ccccc1`, the activity change, negative = cytotoxicity was inactive: -6.27%. In the case of `CCCCO[P+](=O)OCCCC`, the activity change, negative = cytotoxicity is reported as inactive: -0.906% and inactive: -1.89%. In the case of `ClP(Cl)c1ccccc1`, the activity change, negative = cytotoxicity is reported as inactive: 0.429%. For `CCCCC(CC)CO[P+](=O)OCC(CC)CCCC` (stereo unspecified), the activity change, negative = cytotoxicity was inactive: -0.117%. With `CCOP(=S)(CC)Sc1ccccc1` (stereo unspecified) the activity change, negative = cytotoxicity was inactive: -10.1%. In the case of `O=[N+]([O-])c1ccc(S(=O)(=O)O)c([N+](=O)[O-])c1`, the activity change, negative = cytotoxicity is reported as inactive: 0.852%. For `O=P(Cl)(Oc1ccccc1)Oc1ccccc1`, the activity change, negative = cytotoxicity was inactive: 0.865%. For `CCC(C)(OOC(C)(C)C)OOC(C)(C)C`, the activity change, negative = cytotoxicity was inactive: -14.7% [at 15.8 µM]. In the case of `CN(C(=O)Cc1ccccc1)[C@H]1CC[C@@]2(CCCO2)C[C@@H]1N1CCCC1`, the activity change, negative = cytotoxicity is reported as inactive: 3.96% [at 35.3 µM]. In the case of `O=C(Cl)OCCOC(=O)Cl`, the activity change, negative = cytotoxicity is reported as inactive: -6.39%. For `CN(C(=O)Cc1cccc2occc12)[C@H]1CC[C@@]2(CCCO2)C[C@@H]1N1CCCC1`, the activity change, negative = cytotoxicity was inactive: 2.51%. With `Cc1cc([N+](=O)[O-])cc([N+](=O)[O-])c1O` the activity change, negative = cytotoxicity was inactive: -3.66% and inactive: -9.51%. For `O=[N+]([O-])c1ccc([N+](=O)[O-])cc1`, the activity change, negative = cytotoxicity was inactive: -17.6%. In the case of `CN(N=O)C(=N)N[N+](=O)[O-]`, the activity change, negative = cytotoxicity is reported as inactive: 1.91%. In the case of `CC(C)CCCCCCCOP(OCCCCCCCC(C)C)Oc1ccccc1`, the activity change, negative = cytotoxicity is reported as inactive: -3.84%. With `O=P(Cl)(Cl)c1ccccc1` the activity change, negative = cytotoxicity was inactive: -3%. In the case of `O=[p+]1oc2ccccc2c2ccccc21` (stereo unspecified), the activity change, negative = cytotoxicity is reported as inactive: 4.82%. For `CCNC(C)Cc1ccc2c(c1)OCO2` (stereo unspecified), the activity change, negative = cytotoxicity was inactive: -0.557%. With `N#CSc1ccc([N+](=O)[O-])cc1[N+](=O)[O-]` the activity change, negative = cytotoxicity was inactive: -3.99%. For `COC(=O)Cl`, the activity change, negative = cytotoxicity was inactive: -0.317%.
